Literature values in patent US20130330412A1, “SMART POLYMERIC NANOPARTICLES WHICH OVERCOME MULTIDRUG RESISTANCE TO CANCER THERAPEUTICS AND TREATMENT-RELATED SYSTEMIC TOXICITY” (THE JOHNS HOPKINS UNIVERSITY, priority 2010, published 2013).

Details: combination therapy with doxorubicin, breast cancer patients; cited from earlier work

Trastuzumab: monoclonal antibody against human epidermal growth factor-2; HER2
patients developing some form of cardiotoxicity: approximately 27%
